Measured values reported in US9643957B2, “Heterocyclic compounds having cholesterol 24-hydroxylase activity” (TAKEDA PHARMACEUTICAL COMPANY LIMITED, priority 2012, dated 2017).

By UniProt entry, the sequences of proteins in these tests, tags left out. Where a name states a change or a piece, a line headed by the entry shows the natural chain unless it says otherwise.
UniProt Q9Y6A2: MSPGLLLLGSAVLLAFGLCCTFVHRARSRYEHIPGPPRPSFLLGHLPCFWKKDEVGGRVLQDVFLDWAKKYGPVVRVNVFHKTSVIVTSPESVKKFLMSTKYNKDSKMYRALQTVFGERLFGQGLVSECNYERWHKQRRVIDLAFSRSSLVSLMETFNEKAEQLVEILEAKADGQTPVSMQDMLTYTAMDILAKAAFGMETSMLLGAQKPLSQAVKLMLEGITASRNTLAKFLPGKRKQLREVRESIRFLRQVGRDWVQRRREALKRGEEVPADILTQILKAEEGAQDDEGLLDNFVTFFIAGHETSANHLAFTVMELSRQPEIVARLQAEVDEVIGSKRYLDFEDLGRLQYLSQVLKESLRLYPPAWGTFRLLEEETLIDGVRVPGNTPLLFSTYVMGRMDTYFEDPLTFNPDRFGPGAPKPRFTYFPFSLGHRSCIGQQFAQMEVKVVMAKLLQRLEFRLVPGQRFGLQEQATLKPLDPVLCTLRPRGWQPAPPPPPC

These molecules were tested against T1, human CH24H (Homo sapiens, UniProt Q9Y6A2) (assay: Measurement of CH24H inhibitory activity (24-HC produced from [14C] cholesterol by human CH24H lysate)). Conditions: 1 μM test compound, [14C] cholesterol 15 μM, 37° C. for 5 hr, read-out: Inhibitory Rate in 1 μM (%).
T1 construct: Using Full-Length Mammalian Gene Collection No. 4819975 (Invitrogen) as a template; made in house; host or cells: FreeStyle 293-F cells, transient transfection with pcDNA3.1(+)/hCH24H; lysate supernatant, not purified
Assay type: biochemical
Procedure: The expression of human CH24H was performed using FreeStyle 293 Expression System (Invitrogen). […] After transfection, the cells were cultured at 37° C., 8% CO2 with shaking at 125 rpm for 2 days. The cells were collected by centrifugation, and suspended in a suspension buffer (100 mM potassium phosphate (pH 7.4), 0.1 mM EDTA, 1 mM DTT, 20% Glycerol). The suspended product was disrupted by a polytron homogenizer (manufactured by Kinematica), and centrifuged at 9000×g for 10 min, and the supernatant was collected. The collected supernatant was cryopreserved (−80° C.) as a human CH24H lysate standard product.
For the measurement of CH24H inhibitory activity, using the human CH24H lysate prepared in Experimental Example 2, the amount of 24-HC produced from cholesterol by catalytic activity of CH24H was measured in the presence of a test compound, and compared with that measured in the absence of the test compound. That is, a test compound solution at various concentrations was mixed with a reaction buffer (50 mM potassium phosphate containing 0.1% BSA and Complete, EDTA-free, pH 7.4) and human CH24H lysate. Then, [^14C] cholesterol (53 mCi/mmol specific activity, 15 μM) was added, and CH24H reaction was performed at 37° C. for 5 hr. After completion of the reaction, a quenching solution consisting of chloroform/methanol/distilled water (2:2:1 v/v) was added, and the resulting 24-HC was extracted by shaking. The extract was applied to silica gel thin layer chromatography (ethyl acetate:toluene=4:6), and the obtained ^14C-24HC fraction was measured with BAS2500 (Fujifilm Corporation).
The inhibitory rate (%) was calculated from the ratio of radioactivity in the presence of a test compound relative to the radioactivity in the absence of the test compound.

inhibition at 1 µM	SMILES
96%	O=C(NC1CC1)C1CCN(c2cnccc2-c2ccccc2)CC1 [Example 172, N-cyclopropyl-1-(4-phenylpyridin-3-yl)piperidine-4-carboxamide]
85%	O=C(NC1CC1)N1CCN(c2cnccc2-c2ccccc2)CC1 [Example 153, N-cyclopropyl-4-(4-phenylpyridin-3-yl)piperazine-1-carboxamide]
92%	CN(C)C(=O)C1CCN(c2cnccc2-n2cc(C3CC3)cn2)CC1 [Example 59, 1-(4-(4-cyclopropyl-1H-pyrazol-1-yl)pyridin-3-yl)-N,N-dimethylpiperidine-4-carboxamide]
93%	Cc1cnn(-c2ccncc2N2CCC(C(=O)N(C)C)CC2)c1 [Example 194, N,N-dimethyl-1-(4-(4-methyl-1H-pyrazol-1-yl)pyridin-3-yl)piperidine-4-carboxamide]
98%	CN(C)C(=O)C1CCN(c2cnccc2-n2cc(Br)cn2)CC1 [Example 43, 1-(4-(4-bromo-1H-pyrazol-1-yl)pyridin-3-yl)-N,N-dimethylpiperidine-4-carboxamide]
87%	O=C(NC1CC1)C1CCN(c2cncnc2-c2ccccc2)CC1 [Example 180, N-cyclopropyl-1-(4-phenylpyrimidin-5-yl)piperidine-4-carboxamide]
